Structures are written as SMILES. This is a selection; strong and weak results do not stand in their true shares. Some structures show a salt or complex split into parts, the way the source records it. The source made the active and inactive calls. Calls follow the shape of the dose curve; as a rule, active = well fitted activation curve with a large enough effect; inconclusive = small, poorly fitted or top-dose-only effect, or another doubt; inactive = no such curve, though single readings can be large or run the other way.

The chains behind the UniProt entries cited, without tags or fusion partners.
UniProt Q03431, whole entry: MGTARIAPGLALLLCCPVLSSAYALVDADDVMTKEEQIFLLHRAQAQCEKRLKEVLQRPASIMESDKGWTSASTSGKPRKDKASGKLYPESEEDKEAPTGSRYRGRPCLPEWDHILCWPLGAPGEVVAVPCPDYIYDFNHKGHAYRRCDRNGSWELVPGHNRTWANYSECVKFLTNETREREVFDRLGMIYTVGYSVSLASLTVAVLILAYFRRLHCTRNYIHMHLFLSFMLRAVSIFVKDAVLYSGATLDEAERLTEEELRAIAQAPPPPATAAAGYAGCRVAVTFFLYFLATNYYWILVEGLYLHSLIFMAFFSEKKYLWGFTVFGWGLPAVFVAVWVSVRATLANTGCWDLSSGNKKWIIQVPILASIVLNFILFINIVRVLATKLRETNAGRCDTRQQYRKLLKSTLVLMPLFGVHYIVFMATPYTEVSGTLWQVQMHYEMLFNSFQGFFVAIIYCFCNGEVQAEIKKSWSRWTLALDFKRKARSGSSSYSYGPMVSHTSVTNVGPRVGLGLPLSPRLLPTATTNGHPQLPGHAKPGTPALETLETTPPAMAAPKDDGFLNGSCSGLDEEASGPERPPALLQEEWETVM

The assay concerns the target Parathyroid hormone/parathyroid hormone-related peptide receptor (Homo sapiens) (UniProt Q03431). The assay can be described thus: qHTS for PTHR1 Agonists: Primary Screen. Also: nearly all actives have a fitted effect of over 55% in size. As to conditions: HEK293 GP2 PTHR1 cells, GloSensor cAMP luminescence, 1 h; activation: at 115 µM (top of the series) unless noted. A general note: qHTS replaces the single test concentration by a dilution series.
Consider `CC(C)(C)n1nnnc1C(c1ccccc1OC(F)(F)F)N1CCC(n2c(=O)[nH]c3ccccc32)CC1` (stereo unspecified), for which the activation is inactive: -12.8%.
Regarding `O=C(NCC1(N2CCCCC2)CCCCC1)c1ccc(OC(F)F)cc1`, the activation is inactive: -5.02%.
Regarding `CCN1CCC(Nc2ccc(Cl)cc2)CC1`, the activation is inactive: -22.9%.
`O=c1[nH]c2ccccc2n1C1CCN(C(c2ccccc2OC(F)(F)F)c2nnnn2C2CCCC2)CC1` (stereo unspecified): the activation is inactive: -25.1%.
With `N#CC1(Nc2ccccc2)CCN(CCc2ccccc2)CC1` the figure was inactive: -11.2% [at 57.5 µM]; with `CCOc1ccc(C(=O)NCC2(N3CCOCC3)CCCCC2)cc1`, “inactive”.
On to `CSc1ccc(C(=O)NCC2(N3CCOCC3)CCCCC2)cc1`, for which the activation is inactive: -14.8%.
As for `O=[N+]([O-])c1cc([N+](=O)[O-])c(NCC2CCS(=O)(=O)C2)c([N+](=O)[O-])c1` (stereo unspecified), the figure is inactive: -17.1%; as for `CCCOc1cccc(C(=O)NCC2(N3CCOCC3)CCCCC2)c1`, “inactive”; as for `O=C(NCC1(N2CCCCC2)CCCCC1)c1cccc(C(F)(F)F)c1`, “inactive”.
As for `COc1cc(C(=O)NCC2(N3CCCCC3)CCCCC2)ccc1OC(F)F`, the entry is “inactive”; as for `O=C(NCC1(N2CCOCC2)CCCCC1)c1cc(=O)[nH]c2ccccc12`, inactive: -4.45% [at 57.5 µM].
`CN1CCN(CCOC(=O)C(O)(c2ccccc2)c2ccccc2)CC1`: the activation entry is “inactive”.
As for `COc1ccc(NC2CCN(C(=O)OC(C)(C)C)CC2)cc1`, the activation is inactive: -30.8%.
Consider `CC(C)c1ccc(C(=O)NCC2(N3CCOCC3)CCCCC2)cc1`, for which the activation is inactive: -21.5%.
With `CCCCn1nnnc1C(c1cccc2ccccc12)N1CCC(n2c(=O)[nH]c3ccccc32)CC1` (stereo unspecified), the activation was inactive: -12.5%.
With `CCCCn1nnnc1C(c1ccccc1OC(F)(F)F)N1CCC(n2c(=O)[nH]c3ccccc32)CC1` (stereo unspecified), the activation was inactive: -5.63%.
On to `CC(C)c1ccc(NC2CCN(C(=O)OC(C)(C)C)CC2)cc1`, for which the activation was inactive: -27.8%.
With `COc1ccc(CN(CCCl)CCCl)cc1Cl`, the activation entry was “inactive”.
As for `O=[N+]([O-])c1cc([N+](=O)[O-])c(OC2CCCCC2O)c([N+](=O)[O-])c1` (stereo unspecified), the activation was inactive: -48.1%.
For the molecule `CN(C)c1cccc(C(=O)NCC2(N3CCCCC3)CCCCC2)c1`, the activation is inactive: 5.34%.
With `COc1cc(OC)c(C(=O)NCC2(N(C)C)CCCCC2)cc1OC` the entry was “inactive”; with `CCC(c1nnnn1C(C)(C)C)N1CCC(n2c(=O)[nH]c3ccccc32)CC1` (stereo unspecified), inactive: -15.3%.
As for `O=C(NCC1(N2CCOCC2)CCCCC1)c1cc(F)c(F)cc1Cl`, the entry is “inactive”; as for `CCN(CC)CCCNc1ccccc1[N+](=O)[O-].O=[N+]([O-])c1cc([N+](=O)[O-])c(O)c([N+](=O)[O-])c1`, inactive: -6.09% [at 57.5 µM].
Consider `CCCCn1nnnc1C(c1ccnc2ccccc12)N1CCC(n2c(=O)[nH]c3ccccc32)CC1` (stereo unspecified), for which the activation was inactive: -14.2%.
With `O=C(OC1CN2CCC1CC2)c1ccc([N+](=O)[O-])cc1` (stereo unspecified), the activation entry is “inactive”.
As for `CN1CCC(Nc2cccc(F)c2)CC1`, the activation entry is “inactive”.
Turning to `O=C(NCC1(N2CCCCC2)CCCCC1)c1cncc(Br)c1`, the activation result is “inactive”.
In the case of `COc1ccc2c(c1O)-c1c(O)c(OC)cc3c1[C@H](C2)[N+](C)(C)CC3.O=[N+]([O-])c1cc([N+](=O)[O-])c([O-])c([N+](=O)[O-])c1[O-]`, the activation was inactive: -24.4%.
For `O=[N+]([O-])c1cc([N+](=O)[O-])c(Nc2ccc(Cl)cc2)c([N+](=O)[O-])c1`, the activation entry was “inactive”.
With `COc1ccc(C(c2nnnn2C2CCCC2)N2CCC(n3c(=O)[nH]c4ccccc43)CC2)cc1` (stereo unspecified) the figure was inactive: -6.67%; with `CCCCOc1ccccc1C(=O)NCC1(N2CCOCC2)CCCCC1`, inactive: -37.5%.
`Cc1ccc(C(=O)NCC2(N(C)C)CCCCC2)o1`: the activation was inactive: -52.5%.
For the molecule `O=C(NCC1(N2CCOCC2)CCCCC1)c1ccccc1Br`, the activation entry was “inactive”.
`CCCOc1ccc(C(=O)NCC2(N(C)C)CCCCC2)cc1OC`: the activation entry was “inactive”.
For `COc1ccc(C(=O)NCC2(N3CCCCC3)CCCCC2)cc1`, the activation is inactive: 20.4%.
For `CC(C)(C)OC(=O)N1CCC(N(C(=O)c2ccccc2)c2ccc(F)cc2)CC1`, the activation was inactive: -14.5%.
As to `CCC(c1nnnn1C1CCCC1)N1CCC(n2c(=O)[nH]c3ccccc32)CC1` (stereo unspecified), the activation result is “inactive”.
With `O=C(NCC1(N2CCCCC2)CCCCC1)c1ccc(=O)[nH]c1` the entry was “inactive”; with `CCCCn1nnnc1C(CC)N1CCC(n2c(=O)[nH]c3ccccc32)CC1` (stereo unspecified), inactive: -18.1%; with `O=C(NCC1(N2CCCCC2)CCCCC1)c1cccs1`, “inactive”.
`CCCCn1nnnc1C(c1cccs1)N1CCC(n2c(=O)[nH]c3ccccc32)CC1` (stereo unspecified): the activation is inactive: -1.4%.
`CSc1ccccc1C(=O)NCC1(N2CCCCC2)CCCCC1`: the activation entry was “inactive”.
On to `Cc1cccc(NC2(C#N)CCN(Cc3ccccc3)CC2)c1`, for which the activation was inactive: -14.4%.
For `O=C(NCC1(N2CCCCC2)CCCCC1)c1ccc(Cl)nc1`, the activation is inactive: -6.77%.
Turning to `O=c1[nH]c2ccccc2n1C1CCN(C(c2ccccc2OC(F)(F)F)c2nnnn2C2CCCCC2)CC1` (stereo unspecified), the activation result was “inactive”.
Take `Cc1cc(C)cc(N(C(=O)c2ccccc2)C2CCN(C(=O)OC(C)(C)C)CC2)c1`: the activation is inactive: -6.53%.
On to `O=C(NCC1(N2CCOCC2)CCCCC1)c1cc2ccccc2o1`, for which the activation is inactive: -3.79% [at 57.5 µM].
Take `O=C(NCC1(N2CCCCC2)CCCCC1)c1ccc(Cl)s1`: the activation entry is “inactive”.
Consider `N#CC1(Nc2ccccc2)CCN(Cc2ccccc2)CC1`, for which the activation was inactive: 19.8%.
Regarding `O=C(OC1CN2CCC1CC2)C1c2ccccc2Oc2ccccc21` (stereo unspecified), the activation entry was “inactive”.
For `O=c1[nH]c2ccccc2n1C1CCN(C(c2cc3ccccc3o2)c2nnnn2C2CCCCC2)CC1` (stereo unspecified), the activation result is “inactive”.
As to `COc1ccc(Cl)cc1C(=O)NCC1(N2CCOCC2)CCCCC1`, the activation was inactive: -22.5%.
As to `O=C1C(O)=C([N+](=O)[O-])C(=O)C(O)=C1[N+](=O)[O-]`, the activation result was “inactive”.
On to `CCOC(=O)N1CCC(Nc2ccc(OC)cc2)CC1`, for which the activation is inactive: -7.23%.
Regarding `CCCCn1nnnc1C(c1ccc(OC)cc1)N1CCC(n2c(=O)[nH]c3ccccc32)CC1` (stereo unspecified), the activation is inactive: -9.11%.
`O=C(NCC1(N2CCOCC2)CCCCC1)c1ccc(Cl)cc1`: the activation was inactive: -18.4%.
On to `CC(C)(C)n1nnnc1C(c1ccccc1)N1CCC(n2c(=O)[nH]c3ccccc32)CC1` (stereo unspecified), for which the activation is inactive: -4.93%.
For the molecule `O=C1CCN(Cc2ccccc2)CC1`, the activation was inactive: -21.9%.
In the case of `CCOc1ccc(C)cc1CN(CCCl)CCCl`, the activation result is “inactive”.
With `COc1ccccc1C(=O)NCC1(N2CCOCC2)CCCCC1`, the activation was inactive: -26.7%.
With `CCCCn1nnnc1C(c1cc2ccccc2o1)N1CCC(n2c(=O)[nH]c3ccccc32)CC1` (stereo unspecified) the figure was inactive: -10.1%; with `O=P1(N(CCCl)CCCl)SCCCS1`, “inactive”; with `CCCCOc1ccc(C(=O)NCC2(N3CCOCC3)CCCCC2)cc1`, “inactive”.
`O=C(NCC1(N2CCCCC2)CCCCC1)c1ccc(F)cc1`: the activation result is “inactive”.
Take `COc1ccc(NC2CCN(CCc3ccccc3)CC2)c(OC)c1`: the activation was inactive: -17.1%.
As for `CCOC(=O)N1CCC(Nc2ccc(F)cc2)CC1`, the activation is inactive: -53%.
As for `O=c1[nH]c2ccccc2n1C1CCN(C(c2ccccc2)c2nnnn2C2CCCCC2)CC1` (stereo unspecified), the entry is “inactive”; as for `CCOC(=O)N1CCC(Nc2cccc(C)c2)CC1`, inactive: -26%; as for `COc1cc(C(=O)NCC2(N(C)C)CCCCC2)ccc1OC(F)F`, inactive: 2.63%.
As to `O=c1[nH]c2ccccc2n1C1CCN(C(c2cccc3ccccc23)c2nnnn2C2CCCC2)CC1` (stereo unspecified), the activation was inactive: -14.5%.
As for `CN(C)C1(CNC(=O)c2ccc(C(C)(C)C)cc2)CCCCC1`, the figure is inactive: -26.8%.
Turning to `COc1cccc(C(c2nnnn2C2CCCCC2)N2CCC(n3c(=O)[nH]c4ccccc43)CC2)c1OC` (stereo unspecified), the activation was inactive: -15%.
With `CC(=O)N(c1ccccc1)C1CCNCC1`, the activation is inactive: -11.9%.
On to `CCC(c1nnnn1C1CCCCC1)N1CCC(n2c(=O)[nH]c3ccccc32)CC1` (stereo unspecified), for which the activation is inactive: -16%.
On to `COc1cc(OC)cc(C(=O)NCC2(N3CCCCC3)CCCCC2)c1`, for which the activation was inactive: -20.7%.
`O=c1[nH]c2ccccc2n1C1CCN(C(c2ccnc3ccccc23)c2nnnn2C2CCCCC2)CC1` (stereo unspecified): the activation was inactive: -6.95%.
Consider `Cc1ccc(C(=O)NCC2(N3CCCCC3)CCCCC2)o1`, for which the activation entry is “inactive”.
As for `Fc1ccccc1NC1CCN(Cc2ccccc2)CC1`, the activation is inactive: -17.9% [at 57.5 µM].
For `Cc1ccc(Nc2c([N+](=O)[O-])cc([N+](=O)[O-])cc2[N+](=O)[O-])cc1`, the activation is inactive: -47.2%.
For the molecule `Cc1ccc(NC2(C#N)CCN(Cc3ccccc3)CC2)cc1`, the activation was inactive: -0.495%.
As for `Cc1ccccc1NC1(C#N)CCN(Cc2ccccc2)CC1`, the entry is “inactive”.
`COc1ccc(C(c2nnnn2C2CCCCC2)N2CCC(n3c(=O)[nH]c4ccccc43)CC2)cc1` (stereo unspecified): the activation is inactive: -20.8%.
For `CCN1CCC(Nc2cccc(F)c2)CC1`, the activation entry was “inactive”.
Consider `CC(C)(C)n1nnnc1C(c1ccnc2ccccc12)N1CCC(n2c(=O)[nH]c3ccccc32)CC1` (stereo unspecified), for which the activation was inactive: -6.22%.
Turning to `Cc1ccccc1C(=O)NCC1(N(C)C)CCCCC1`, the activation result is “inactive”.
For the molecule `O=C(NCC1(N2CCCCC2)CCCCC1)c1ccco1`, the activation result was “inactive”.
For `CC(C)(C)c1ccc(C(=O)NCC2(N3CCOCC3)CCCCC2)cc1`, the activation was inactive: -39.7%.
With `CN(C)c1ccc(C(=O)NCC2(N3CCCCC3)CCCCC2)cc1` the entry was “inactive”.
On to `Cn1c(=O)[nH]cc(N(CCCl)CCCl)c1=O`, for which the activation result was “inactive”.
`CCOc1ncccc1C(=O)NCC1(N2CCOCC2)CCCCC1`: the activation is inactive: -19%.
In the case of `CN1CCC(Nc2ccc(F)c(Cl)c2)CC1`, the activation was inactive: 10.5%.
As for `CC(C)(C)OC(=O)N1CCC(Nc2ccccc2)CC1`, the activation was inactive: -18%.
With `O=C(O)C1(Nc2ccccc2)CCN(Cc2ccccc2)CC1` the entry was “inactive”; with `NN(c1ccccc1)C1CCN(CCc2ccccc2)CC1`, inactive: -2.16%.

The values above are taken from PubChem BioAssay AID743266 (National Center for Advancing Translational Sciences (NCATS), 2014).
